# Yeast mating assay 1: variants of the scFv Ab-14

Values reported by Engelhart et al. 2022, doi:10.1038/s41597-022-01779-4 (FLAb copy).

Target peptide (SARS-CoV-2 spike, HR2 region): PDVDLGDISGINAS

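The parent was found by panning a naive human phage display library on the peptide. In library AAYL49, one, two or three CDR residues were substituted; doubles and triples were drawn at random. The scFvs were displayed on barcoded MATa yeast, the peptide on MATalpha yeast. Pairs that bind mate more often; barcode pairs of the diploids are counted by sequencing. A regression on co-assayed BCL2-family reference pairs converts the normalised counts of each replicate to an apparent Kd. The assay was run in three technical replicates.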

Parent scFv Ab-14: VH joined to VL by a (GGGGS)3 linker. Changes lie in the heavy chain CDRs alone.
VH: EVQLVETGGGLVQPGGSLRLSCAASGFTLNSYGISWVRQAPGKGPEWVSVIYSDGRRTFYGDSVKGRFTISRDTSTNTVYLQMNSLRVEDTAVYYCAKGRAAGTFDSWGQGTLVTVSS
VL: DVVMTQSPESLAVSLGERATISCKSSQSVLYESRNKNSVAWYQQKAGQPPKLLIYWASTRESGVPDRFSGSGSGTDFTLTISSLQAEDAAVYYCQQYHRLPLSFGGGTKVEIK

Variants are written as CDR1, CDR2 and CDR3 of the heavy chain (limits as in the source). Parent: GFTLNSYGIS, VIYSDGRRTFYGDSVK, GRAAGTFDS. All variants listed here change N30 of the VH, counted from its first residue. Each Kd is an estimate from the mating assay, the geometric mean of the replicates in which the pair was seen; lower is stronger. A pair that was not seen in any replicate is written "no signal"; this usually means weak binding, but a binder can also be missed. In this assay the parent's reference entry averaged 4.4 nM; its copy inside this library read 13 µM (one replicate of three). Nonspecific signal, from three strains lacking the peptide, appeared in 15% of pairings of library AAYL49, centred on 11 µM (5% of these signals below 680 nM); values are not corrected for it. The control count says in how many pairings with the empty strains this scFv gave a signal.

* GFTMASYGIS / VIYSDTRRTFYGDSVK / GRAAGTFDS: 20 µM (1 of 3 replicates; controls 0 of 9)
* GFTLFSYNIS / VIYSDGRRTFYGDSVK / GRAKGTFDS: no signal (0 of 3 replicates; controls 0 of 9)
* GFTLISYGIS / VIKSLGRRTFYGDSVK / GRAAGTFDS: no signal (0 of 3 replicates; controls 0 of 9)
* GFTLHSYGIS / VIYSDGRRTFYGSSVK / GVAAGTFDS: 290 nM (3 of 3 replicates; controls 0 of 9)
* GFTLWSYGIS / VWYSDGRCTFYGDSVK / GRAAGTFDS: 38 µM (1 of 3 replicates; controls 1 of 9)
* GFTLHSYGIS / VIYSDGRRTFYGDSVA / GEAAGTFDS: 8.5 nM (3 of 3 replicates; controls 0 of 9)
* GFTLPSYGIS / VIYSDGRLTFYGDSVI / GRAAGTFDS: no signal (0 of 3 replicates; controls 0 of 9)
* GFTLSSSGIS / VIYFDGRRTFYGDSVK / GRAAGTFDS: no signal (0 of 3 replicates; controls 2 of 9)
* GFTLVSYGIS / VIYSDGRRTFYGDSVK / GRMAGTFDM: 93 nM (3 of 3 replicates; controls 2 of 9)
* GFGLLSYGIS / VIYSDGRRTFYGDSLK / GRAAGTFDS: no signal (0 of 3 replicates; controls 0 of 9)
* GFTLWSYGIE / VIYSDGRRTFYGDSVK / GRAAGTADS: no signal (0 of 3 replicates; controls 0 of 9)
* GFTLPSYGIS / VIYSDWRRTFYGDSVK / GRAASTFDS: no signal (0 of 3 replicates; controls 4 of 9)
* GFLLLSYGIS / VIYSDGRRTFYGDSVK / GRAAGTFDQ: 140 nM (3 of 3 replicates; controls 2 of 9)
* GFYLQSYGIS / VIYSDGRRTFYGDSVK / GRAPGTFDS: 330 nM (3 of 3 replicates; controls 1 of 9)
* GFTLASYGIS / TIYSDGRRTFYGDKVK / GRAAGTFDS: no signal (0 of 3 replicates; controls 1 of 9)
* NFTLPCYGIS / VIYSDGRRTFYGDSVK / GRAAGTFDS: 8.2 µM (3 of 3 replicates; controls 2 of 9)
* GFTLGSGGIS / VIYSDFRRTFYGDSVK / GRAAGTFDS: 52 µM (1 of 3 replicates; controls 3 of 9)
* GFTLSSYGIS / VIYSDGRRTFYGDSVK / GDAAGTFDS: no signal (0 of 3 replicates; controls 0 of 9)
* GITLLSYGIS / VIYSDGRRTFYGDSVK / GRAAGTFDS: 900 nM (3 of 3 replicates; controls 0 of 9)
* GFVLRSYGIS / VIYSDGQRTFYGDSVK / GRAAGTFDS: 530 nM (3 of 3 replicates; controls 2 of 9)
* GFTLHSYGIS / VIYSDGRRTFYGDEVK / GRAKGTFDS: 8.3 nM (3 of 3 replicates; controls 2 of 9)
* GFTLESYGIS / VIYSDGRVTFYGDRVK / GRAAGTFDS: 11 µM (1 of 3 replicates; controls 0 of 9)
* GFTLLSQGIS / VIYSDGRRTFYGDSVK / GFAAGTFDS: 9.9 µM (3 of 3 replicates; controls 3 of 9)
* GFTLISYGIS / VIYSDGRRTFVGDSVK / GRAALTFDS: no signal (0 of 3 replicates; controls 0 of 9)
* GHTLPSYGIS / VIYSDGRRFFYGDSVK / GRAAGTFDS: 16 µM (1 of 3 replicates; controls 5 of 9)
* GFTLRSYGIS / VIYSSGRRTFYGDSVK / GRAAGTFES: 12 µM (1 of 3 replicates; controls 5 of 9)
* GFTLISYGIS / VIYSDGDRTFYGDSVK / GRAAWTFDS: no signal (0 of 3 replicates; controls 0 of 9)
* GFCLTSYGIS / VIYSDGRRTFYGDNVK / GRAAGTFDS: 60 nM (3 of 3 replicates; controls 0 of 9)
* GFTLMSYGIS / VIYSDGRETFYGDSVK / GRAWGTFDS: no signal (0 of 3 replicates; controls 2 of 9)
* GFDLMSYGIS / VIYSDGRRTFYGDIVK / GRAAGTFDS: 70 nM (3 of 3 replicates; controls 1 of 9)
* GFTLSCYMIS / VIYSDGRRTFYGDSVK / GRAAGTFDS: 130 µM (2 of 3 replicates; controls 2 of 9)
* KFTLPSYGIS / VIYSDGRRTFYGDSVK / KRAAGTFDS: no signal (0 of 3 replicates; controls 2 of 9)
* GFTLISNGIS / VIYSDGRNTFYGDSVK / GRAAGTFDS: 250 µM (2 of 3 replicates; controls 5 of 9)
* GFTLLSYGIS / VIYSDGRRTFYGDSVF / GRAAGTFDS: 120 nM (3 of 3 replicates; controls 0 of 9)
* GFTLFSYGIS / VRYSDGRRTFYGDHVK / GRAAGTFDS: no signal (0 of 3 replicates; controls 0 of 9)

2 of these entries, quoted again:

* GFTLSCYMIS / VIYSDGRRTFYGDSVK / GRAAGTFDS = 130 µM (2 of 3 replicates; controls 2 of 9)
* GFTLVSYGIS / VIYSDGRRTFYGDSVK / GRMAGTFDM = 93 nM (3 of 3 replicates; controls 2 of 9)